Each structure is given as a SMILES string. ≈ marks a conversion by molar mass, not a printed value. Like-named read-outs stand apart in the source and are kept apart here.

Assay [1] has as its system GP_020 S. aureus MRSA (ATCC 43300). The following applies: 50% human serum + 50% CaMHB.
In assay [2] the test system is GP_064 S. aureus NARSA, VRS1 (VRSA). The experiment in a line: microbe, parasite or virus in culture. The following applies: Staphylococcus aureus, no serum (from report 99962_002), head GP_064 S. aureus NARSA.
Assay [3] has the same test system. The following applies: RS1, 50% human serum + 50% CaMHB.
Assay [4] deals with GP_020 S. aureus MRSA (ATCC 43300). The experiment in a line: microbe, parasite or virus in culture. The following applies: Staphylococcus aureus, ATCC43300|MRSA, no serum (from report 99962_002); head S. aureus MRSA.
Assay [5] relates to GP_035 S. aureus NRS60 (ATCC 700699, NRS1; MRSA, VISA). The following applies: GP_035 S. aureu NRS60; 50% human serum + 50% CaMHB.
Assay [6] shares this test system. The experiment in a line: microbe, parasite or virus in culture. The following applies: Staphylococcus aureus, ATCC700699|MRSA|NRS1|NRS60|VISA, no serum (from report 99962_002); head GP_035 S. aureus NRS60.

Regarding `C=C(C)C1CCC(C)=CC1c1c(O)cc(CCCCC)cc1O` (stereo not drawn) [Cannabidiol, 2-[3-methyl-6-(1-methylethenyl)-2-cyclohexen-1-yl]-5-pentyl-1,3-benzenediol], the MIC result was “inactive” in assay [1]; 2 µg/mL (≈ 6.36 µM) in assay [2]; “inactive” in assay [3]; 2 µg/mL (≈ 6.36 µM) in assay [4]; “inactive” in assay [5]; 1 µg/mL (≈ 3.18 µM) in assay [6].

For the molecule `C/C(=C\C(=O)OCCCCCCCCC(=O)O)C[C@@H]1OC[C@H](C[C@@H]2O[C@H]2[C@@H](C)[C@H](C)O)[C@@H](O)[C@H]1O` [Mupirocin], the MIC in assay [1] and in assay [5] was 4/8 in each case.

As to `CN[C@H](CC(C)C)C(=O)N[C@H]1C(=O)N[C@@H](CC(N)=O)C(=O)N[C@H]2C(=O)N[C@H]3C(=O)N[C@H](C(=O)N[C@H](C(=O)O)c4cc(O)cc(O)c4-c4cc3ccc4O)[C@H](O)c3ccc(c(Cl)c3)Oc3cc2cc(c3O[C@@H]2O[C@H](CO)[C@@H](O)[C@H](O)[C@H]2O[C@H]2C[C@](C)(N)[C@H](O)[C@H](C)O2)Oc2ccc(cc2Cl)[C@H]1O` [Vancomycin], the MIC in assay [5] is 4/16.

The values are drawn from patent publication US20220296535A1, “Antibacterial Dosage Regime Using Cannabinoids” (Botanix Pharmaceuticals Limited, priority 2019, published 2022).
